Measured values published in patent publication US8778881B2 (priority 2004, dated 2014).

Sequences of proteins named here, by UniProt entry; tags and fusion partners are left off.
UniProt P37288, whole entry: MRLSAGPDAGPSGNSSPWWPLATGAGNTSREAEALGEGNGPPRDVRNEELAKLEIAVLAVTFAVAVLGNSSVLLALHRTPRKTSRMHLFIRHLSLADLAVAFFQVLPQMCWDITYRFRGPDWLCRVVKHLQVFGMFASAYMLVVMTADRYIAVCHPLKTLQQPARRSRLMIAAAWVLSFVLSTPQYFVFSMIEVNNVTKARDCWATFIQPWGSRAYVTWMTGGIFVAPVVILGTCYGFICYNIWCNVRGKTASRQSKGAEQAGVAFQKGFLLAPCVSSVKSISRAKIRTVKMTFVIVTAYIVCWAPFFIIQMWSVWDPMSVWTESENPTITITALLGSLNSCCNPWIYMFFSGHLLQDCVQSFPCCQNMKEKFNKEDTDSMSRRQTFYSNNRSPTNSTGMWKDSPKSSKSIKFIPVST

What was measured:
[1] = test system: anaesthetised Sprague-Dawley male rats; test: in vivo duration of action, blood pressure test in anaesthetised rats; design: species or system rat; settings: ratio of decay rate of diastolic blood pressure response to standard AVP dose (0.1 nmol/kg i.v.) to decay rate for equieffective dose of compound; dibenamine-pretreated rats
hV1a receptor = target: T1, hV1a receptor (Homo sapiens, UniProt P37288); test: hV1a receptor transcriptional reporter (luciferase) agonist assay in HEK-293 cells; format: cell-based; settings: geometric mean; HEK-293 cells transiently transfected, 5 hours exposure, at least three independent experiments
T1 construct: expressed in transfected cells; host or cells: HEK-293 cells (transient transfection)
Method: (§1) Agonist activity of compounds on the hV1a receptor was determined in a transcriptional reporter assay by transiently transfecting a hV1a receptor expression DNA into HEK-293 cells in concert with a reporter DNA containing intracellular calcium responsive promoter elements regulating expression of firefly luciferase. See Boss, V., Talpade, D. J., Murphy, T. J. J. Biol. Chem. 1996, May 3; 271(18), 10429-10432 for further guidance on this assay. […] To determine selectivity, compounds were tested in luciferase-based transcriptional reporter assays expressing the human oxytocin (hOT) receptor. Assays for other receptors (hV2, hV1b, rat V1a and rat V2) were also conducted.
(§2) The EC50 value given is the geometric mean expressed in nanomol/L (nM). Selectivity values are given as EC50 ratios.

[2] = target: T2, human oxytocin (hOT) receptor (Homo sapiens, UniProt P30559); test: luciferase-based transcriptional reporter assay expressing the human oxytocin (hOT) receptor, for selectivity; format: cell-based; settings: agonist efficacy at the hOT receptor compared to AVP; ratio not determined
T2 construct: expressed in transfected cells
T2 sequence (P30559 1-389): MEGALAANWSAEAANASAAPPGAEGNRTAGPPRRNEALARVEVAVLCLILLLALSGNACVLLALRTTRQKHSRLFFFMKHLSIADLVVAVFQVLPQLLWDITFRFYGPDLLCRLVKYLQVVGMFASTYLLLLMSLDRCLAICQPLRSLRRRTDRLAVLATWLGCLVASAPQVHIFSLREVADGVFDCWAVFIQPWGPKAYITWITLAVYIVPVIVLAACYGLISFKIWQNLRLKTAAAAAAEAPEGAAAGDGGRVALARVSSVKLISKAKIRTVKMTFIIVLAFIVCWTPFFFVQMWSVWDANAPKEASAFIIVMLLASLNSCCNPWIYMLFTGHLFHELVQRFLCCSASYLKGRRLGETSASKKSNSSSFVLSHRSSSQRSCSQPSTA
Method: as §1, §2

- EC50 (hV1a receptor): 0.56 nM
SMILES: CC[C@H](N)C(=O)NCC[C@H](NC(=O)[C@@H]1CCCN1C(=O)[C@@H]1CSSC[C@H](O)C(=O)N[C@@H](Cc2ccccc2)C(=O)N[C@@H]([C@@H](C)CC)C(=O)N[C@@H](CCCC(N)=O)C(=O)N[C@@H](CC(N)=O)C(=O)N1)C(=O)NCC(N)=O [Compound F180, reference compound]
- in vivo duration relative to AVP [1]: 3.8
- selectivity hOT/hV1a (class symbol) [2]: + (selective hV1a receptor agonist; EC50 hOT/hV1a ratio not determined due to very low agonist efficacy (<30% compared to AVP) at the hOT receptor)
